From ChEMBL document CHEMBL3994656, “Furanoterpenes, new types of protein tyrosine phosphatase 1B inhibitors, from two Indonesian marine sponges, Ircinia and Spongia spp” (Bioorg Med Chem Lett, 2017) come the findings set out here.

The species entered for experiment [1] is Homo sapiens. As to the kind of experiment: Selectivity ratio of IC50 for human CD45 cytoplasmic domain (584 to 1281 residues) expressed in yeast to IC50 for recombinant human PTP1B (1 to 322 residues) expressed in Escherichia coli.
The species named for experiment [2] is Homo sapiens. As to the kind of experiment: Selectivity ratio of IC50 for full length recombinant N-terminal GST-tagged human TCPTP expressed in Escherichia coli to IC50 for recombinant human PTP1B (1 to 322 residues) expressed in Escherichia coli.

Regarding `CC1=C(O)/C(=C/[C@@H](C)CCC/C(C)=C/CC/C(C)=C/CCc2ccoc2)OC1=O`, the Ratio IC50 in the experiment listed under Homo sapiens [1] was found to be 4; in the experiment filed under Homo sapiens [2], 2.
